Earlier results in patent publication US8598128B2, “Fructosylated puerarin, and preparation method and use thereof” (priority 2010, dated 2013).

Settings: literature; cited from earlier work

Question: For “semi-emulsified glycosyl-α-(1,4)-puerarin”, which “water solubility compared with puerarin” value is on record?
Answer: The value was 12 times.
